Screens (PubChem BioAssay)
In the library only some 13% were active in any assay of this set; here they are far more common.
G9a block: G9a (human) methyltransferase inhibition; Q96KQ7; G9a H3K9 monomethylation, AlphaScreen, 2 h; Potency, µM (titrated, usually from 102 µM), for the others: at the top dose activity, negative = inhibition, most hits filed as inhibitors; hit rate 8.8% among 350,000; further: potency means the concentration at half of the fitted maximal effect; on the % scale 0 is the no-effect control and ±100 the full control effect; nearly all actives have a fitted effect of over 75% in size
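Methyltransferase reactions run at room temperature for 2 h (20 nM enzyme, 500 nM biotin-H3K9 peptide, 20 uM SAM) after a 15 min compound preincubation; product detected by AlphaScreen beads and anti-H3K9me1 antibody.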
Lamin A splicing: modulators of lamin A splicing | AID 1487 | HeLa LMNA splicing GFP/RFP minigene ratio, 48 h | hit rate 0.01% among 200,000 | Potency, µM (top dose mostly 46.1 µM), without a hit: at the highest dose ratio change, negative = inhibition, hits mostly inhibitors; active means well fitted inhibition curve with a large enough effect in the signal ratio, with a control signal flat, not every such curve was filed as active; inconclusive means small, poorly fitted or top-dose-only effect, or effect the other way, or a change in a side signal; the % refers to the signal ratio; further: potency means the concentration at half of the fitted maximal effect; on the % scale 0 is the no-effect control and ±100 the full control effect
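S3 HeLa stable clones carrying a lamin A-EGFP splicing minigene plus DsRed2 were seeded at 600 cells/well in Opti-MEM with 2% FBS, pin-dosed and incubated 48 h at 37°C. Acumen cytometry (488 nm) gave the GFP/RFP total-intensity ratio.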
KDM4E inh: blocks human JMJD2E demethylase activity. JMJD2E catalytic domain, FDH-coupled NADH fluorescence (FDH is formaldehyde dehydrogenase). hit rate 1.6% among 230,000. B2RXH2. Potency, µM (titrated, usually from 57.1 µM), for inactives: at the top dose activity change, negative = inhibition, usual class: inhibitors; active means well fitted inhibition curve with a large enough effect, not every such curve was filed as active; inconclusive means small, poorly fitted or top-dose-only effect, or another doubt; inactive means no such curve, though single readings can be large or run the other way;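 further: potency means the concentration at half of the fitted maximal effect; 0% = wells with enzyme and -100% = buffer wells without enzyme; nearly all actives have a fitted effect of over 50% in size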
miR-21 reporter: miR-21 reporter, rising signal | AID 2288 | HeLa miR-21 FLuc reporter, luciferase, 48 h | 340,000 tested, under 10 active | Potency, µM (doses to about 38.3 µM), for inactives: at the top dose reporter change, positive = more light; active = well fitted rising curve with a large enough effect; inconclusive = small, poorly fitted or top-dose-only effect; inactive = no such curve, though single readings can be large or run the other way;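 note: % of control where 0% means no effect; miR-21 action dims this reporter so a rising signal means less miR-21 action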
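HeLa cells stably expressing CMV-driven firefly luciferase with a downstream miR-21 binding sequence, endogenously expressing miR-21, were treated with titrations (up to about 40uM final) for 48 hours at 37 degree Celsius. Luciferase luminescence was read after lysis.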
ALDH1A1 block: blocks purified human ALDH1A1 activity; Purified ALDH1A1, NADH fluorescence, propionaldehyde substrate; Potency, µM (highest dose often 75.3 µM), without a hit: top-dose activity, negative = inhibition, actives largely listed as inhibitors; hit rate 7.3% among 220,000; AID 1030; P00352; active means well fitted inhibition curve with a large enough effect, not every such curve was filed as active; inconclusive means small, poorly fitted or top-dose-only effect, or another doubt; inactive means no such curve, though single readings can be large or run the other way;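 further: potency means the concentration at half of the fitted maximal effect; plate controls were no enzyme wells and a reference inhibitor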
Sfp PPTase inh: blocks B. subtilis Sfp PPTase activity | 310,000 compounds, 3.5% hits | Potency, µM, without a hit: max response, negative = inhibition, actives largely listed as inhibitors | Biochemical Sfp PPTase activity, qHTS; active means well fitted inhibition curve with a large enough effect; inconclusive means small, poorly fitted or top-dose-only effect, or another doubt; inactive means no such curve, though single readings can be large or run the other way;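 further: the enzyme is Sfp with the accession as filed and its product quenches rhodamine fluorescence; potency means the concentration at half of the fitted maximal effect; 0% = enzyme reaction without inhibitor and -100% = no enzyme wells; top concentration of the series not given in the record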
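Fluorescence-quenching assay with 15 nM Sfp, 5 uM rhodamine-CoA and 12.5 uM BHQ-2-labelled ybbR peptide in pH 7.6 Hepes/MgCl2 buffer. Enzyme was pre-incubated with compound for 15 min at room temperature. Rate was taken from the 30-min fluorescence change (525/598 nm).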
* = called active by the depositor; ? = inconclusive; · = no result; ! = a repeat was not active; [ ] = dose if it differs, or a comment. Unless noted, the call rests on the fitted dose curve; in most records, active means well fitted curve in the direction sought with a large enough effect; inconclusive means small, poorly fitted or top-dose-only effect, or another doubt; inactive means no such curve, though single readings can be large; an effect the other way counts as inactive or inconclusive.

1) COc1ccc(N2CCN(C(=O)CCn3c(=O)[nH]c4cc(OC)c(OC)cc4c3=O)CC2)cc1
2) COc1ccc(C(=O)Nc2nc3c(s2)Cc2c(Br)ccc(OC)c2-3)cc1OC
3) Cc1ccc2occ(/C=C/C(=O)c3ccccc3O)c(=O)c2c1
4) CCNc1ncc2nc(C)c(=O)n(C)c2n1
5) CCC1(c2ccccc2)NC(=O)N(CC(=O)NCc2ccc(C)cc2)C1=O (stereo unspecified)
6) O=C(Nc1ccccc1N1CCCCC1)C1CCN(S(=O)(=O)c2ccccc2C(F)(F)F)CC1
7) O=C(Nc1ccccc1N1CCCC1)C1CCN(S(=O)(=O)c2ccccc2)CC1
8) O=C(Nc1ccccc1N1CCCC1)C1CCN(S(=O)(=O)c2ccccc2C(F)(F)F)CC1
9) Cc1cccc(N2CC(C(=O)Nc3ccc(S(=O)(=O)N4CCCCC4)cc3)CC2=O)c1C (stereo unspecified)
10) Cc1ccccc1N1CC(C(=O)Nc2ccc(S(=O)(=O)N3CCCCC3)cc2)CC1=O (stereo unspecified)

Assay by compound	1	2	3	4	5	6	7	8	9	10
G9a block	-21%[59 µM]	-7%[59 µM]	9%	8%[0.501 µM]	-4%	-27%[59 µM]	50µM*	35µM*	-11%	71µM*
Lamin A splicing	·	·	0%	0%	·	·	·	·	·	·
KDM4E inh	·	·	-4%	·	·	·	·	·	·	·
miR-21 reporter	0%	5%	-19%	·	1%	·	·	·	23%	10%
ALDH1A1 block	·	·	7.9µM*	?	·	·	·	·	·	·
Sfp PPTase inh	·	·	9%	16%	26%	·	·	·	-2%	-12%

In the list so far, these have a halogen.
2) COc1ccc(C(=O)Nc2nc3c(s2)Cc2c(Br)ccc(OC)c2-3)cc1OC
6) O=C(Nc1ccccc1N1CCCCC1)C1CCN(S(=O)(=O)c2ccccc2C(F)(F)F)CC1
8) O=C(Nc1ccccc1N1CCCC1)C1CCN(S(=O)(=O)c2ccccc2C(F)(F)F)CC1

Assay by compound	2	6	8
G9a block	-7%[59 µM]	-27%[59 µM]	35µM*
Lamin A splicing	·	·	·
KDM4E inh	·	·	·
miR-21 reporter	5%	·	·
ALDH1A1 block	·	·	·
Sfp PPTase inh	·	·	·

Remaining list, next part.
11) CCC(=O)NCc1ccc2[nH]c(C)cc2c1
12) Cc1cc2cc(CNC(=O)CCC(=O)O)ccc2[nH]1
13) COc1cc(C2c3sc(=O)[nH]c3SC3C4CCC(C4)C23)ccc1O (stereo unspecified)
14) COc1ccc(C2c3sc(=O)[nH]c3SC3C4CCC(C4)C23)cc1 (stereo unspecified)
15) CCOC(=O)C1CSc2[nH]c(=O)sc2C1c1ccccc1 (stereo unspecified)
16) O=c1[nH]c2c(s1)C(c1ccccc1)C1C3CCC(C3)C1S2 (stereo unspecified)
17) Cc1ccc(C2c3sc(=O)[nH]c3SC3C4CC(C5C(=O)N(C(C)C(=O)O)C(=O)C45)C23)cc1 (stereo unspecified)
18) COc1ccc(C2NC(=O)C(C)S2)cc1 (stereo unspecified)
19) COc1cc(C2SCCCCCCCCCCSC(c3ccc(O)c(OC)c3)SCCCCCCCCCCS2)ccc1O (stereo unspecified)
20) COc1ccc(C2c3sc(=O)[nH]c3SCC2C(N)=O)cc1 (stereo unspecified)

Assay by compound	11	12	13	14	15	16	17	18	19	20
G9a block	35µM*	-1%	13µM*	?	45µM*	45µM*	?	17%[12.7 µM]	·	-30%
Lamin A splicing	·	1%	1%	-2%	0%	?	-8%	1%	·	·
KDM4E inh	-1%	0%	7%	2%	-1%	1%	-9%	-3%	·	-8%
miR-21 reporter	0%	-6%	-3%	1%	1%	4%	-3%	-3%	·	0%
ALDH1A1 block	-3%	28µM*	?	22µM*	28µM*	20µM*	?	3%	8%[13.5 µM]	·
Sfp PPTase inh	-6%	16%	-18%	-12%	40µM*	-18%	-18%	8%	·	23%

21) CCC[C@H](N[C@@H](C)C(=O)N1[C@H](C(=O)O)C[C@@H]2CCCC[C@@H]21)C(=O)OCC
22) CSc1nc(-c2ccc(F)cc2)cc(=O)[nH]1
23) COC(=O)C1CSc2[nH]c(=O)sc2C1c1ccc(O)c(OC)c1 (stereo unspecified)
24) NCCNc1cccc2ccccc12
25) CC(=O)NC1[C@H](O)C[C@@](O)(C(=O)O)O[C@H]1[C@H](O)[C@H](O)CO (stereo partly specified)
26) COC(=O)C1=C(C)N(Cc2ccccc2)C(=NCC(C)C)N[C@H]1c1ccccc1
27) COC(=O)C1=C(C)N(Cc2ccccc2)C(=O)N[C@H]1c1ccccc1
28) Cc1cc(C)cc(NS(=O)(=O)c2ccc3[nH]cc(C(=O)N4CCc5ccccc54)c(=O)c3c2)c1
29) CCc1ccc(NS(=O)(=O)c2ccc3[nH]cc(C(=O)N4CCc5ccccc54)c(=O)c3c2)cc1
30) CCN(CC)C(=O)c1c[nH]c2ccc(S(=O)(=O)Nc3cc(C)cc(C)c3)cc2c1=O

Assay by compound	21	22	23	24	25	26	27	28	29	30
G9a block	8%[59 µM]	-7%	14µM*	?	-8%[12.7 µM]	50µM*!	?	-3%[59 µM]	50µM*	6%[59 µM]
Lamin A splicing	·	-10%	-6%	·	·	·	?	?	-19%	1%
KDM4E inh	·	2%	8%	·	·	·	-5%	-1%	?	32µM*
miR-21 reporter	·	-9%	-7%	·	·	-1%	6%	3%	-46%	0%
ALDH1A1 block	·	4%	2.5µM*	?	·	·	7.9µM*!	10µM*	14µM*	-3%
Sfp PPTase inh	·	2%	56µM*	71µM*	23%	17%	-1%	-7%	-8%	24%

31) CCc1ccc(NS(=O)(=O)c2ccc3[nH]cc(C(=O)N4CCCCCC4)c(=O)c3c2)cc1
32) CCC(Sc1nc(-c2ccccc2)cc(=O)[nH]1)C(=O)O (stereo unspecified)
33) CC(C)Sc1nc(-c2ccccc2)cc(=O)[nH]1
34) COc1ccc2c(c1)c1c(c(=O)n(-c3cccc(C)c3)c(=O)n1CC(=O)Nc1c(C)cc(C)cc1C)n2C
35) C=CCC1NS(=O)(=O)O[C@H](CCCC)[C@@H]1O (stereo partly specified)
36) C=CCN1C(=O)/C(=C\C=C2\N(C)c3ccccc3C2(C)C)SC1=S
37) CN1/C(=C\C=C2/SC(=S)N(CC(=O)O)C2=O)C(C)(C)c2ccccc21
38) Cc1ccc(C(=O)CCNc2ccc(F)c(Cl)c2)o1
39) Cc1ccc(C(=O)Cc2ccccc2)o1
40) Cc1ccc(C(=O)CCNc2ccccc2)o1

Assay by compound	31	32	33	34	35	36	37	38	39	40
G9a block	-4%[59 µM]	1%[59 µM]	35µM*	32%[59 µM]	11%	16µM*	18µM*	8%[59 µM]	-20%[12.7 µM]	-30%[59 µM]
Lamin A splicing	·	2%	5%	·	·	-4%	·	-13%	·	-4%
KDM4E inh	·	0%	0%	·	·	-3%	-7%	0%	·	-2%
miR-21 reporter	-11%	-3%	-9%	-5%	-1%	-1%	2%	-11%	·	-27%
ALDH1A1 block	·	-1%	20µM*	·	·	-2%	-3%	14µM*	·	16µM*
Sfp PPTase inh	·	9%	?	·	25%	-16%	22µM*	9%	·	0%

41) Cc1ccc(C(=O)CCNc2cccc(Br)c2)o1
42) Cc1ccc(C(=O)CCNc2ccc(Br)cc2)o1
43) CN(CC(=O)NCCc1ccc(F)cc1)Cc1ccc(Br)cc1
44) CC(NC(=O)CN(C)Cc1cccc(Cl)c1)c1ccccc1 (stereo unspecified)
45) CSc1ccccc1NC(=O)CN(C)CC(=O)Nc1cc(C)ccc1C
46) CSc1ccccc1NC(=O)CN(C)CC(=O)NCc1ccccc1

Assay by compound	41	42	43	44	45	46
G9a block	7%[59 µM]	-8%[59 µM]	54%	25µM*	12%[59 µM]	8%
Lamin A splicing	3%	-1%	·	·	-10%	4%[46 µM]
KDM4E inh	2%	0%	·	·	-6%	4%
miR-21 reporter	-22%	-28%	-5%	-12%	-5%	-6%
ALDH1A1 block	?	11µM*	·	·	-17%	0.2µM*
Sfp PPTase inh	-2%	16%	19%	-22%	-7%	-1%
